# Source: PubChem (several laboratories)
# Only some compounds are listed: those with a hit (about 2.1% of all), similar ones and a draw of the others.
# ERp5 block = inhibitors of ERp5-driven insulin aggregation, primary screen, biochemical, turbidity, absorbance 650 nm, single point | Protein disulfide-isomerase A6 (Homo sapiens), Q15084 | inhibition, % at 9.99 µM | AID 651711, 2012 | 350,000 compounds, 0.05% hits | 90 min;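 active = mean replicate inhibition above about 25%, with every replicate also reaching it, limit read from the data, passing the limit was not always enough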
# SMARCA2 act = SMARCA2 (BRM) function activators, primary screen, cell-based, luminescence, high throughput; AID 652017, 2013; MG213 cells, MMTV-luciferase reporter, dexamethasone, overnight; activation, % at 9.1 µM; 370,000 compounds, 1% hits; in the data active = activation above about 7.8%;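 note: 0% = vehicle wells and 100% = reference activator wells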
# INS-1E GSIS act = GLuc luminescence reporter in INS-1E cells, primary screen for activators of glucose-dependent secretion of insulin | AID 743287, 2014 | activation, % at 16.6 µM | INS-1E GLuc reporter insulin secretion, 2-3 h | 370,000 compounds, 0.61% hits;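 active = lowest replicate activation of at least 40%, so every replicate reaches that level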;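 note: 0% = median of neutral control wells and 100% = median of IBMX positive control wells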
# NR1D1 modulator = modulators of Rev-erb alpha DNA binding, primary screen, biochemical, FITC-DNA, fluorescence polarization, uHTS; Nuclear receptor subfamily 1 group D member 1 (Homo sapiens), P20393; Rev-erbα–FITC-DNA binding, 90 min; activity, % at 10 µM; 370,000 compounds, 0.79% hits; AID 1259318, 2017;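 active = activity above about 14%, limit read from the data; passing the limit was not always enough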;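 note: 0% = DMSO wells with 35 nM protein and 100% = DMSO wells with 750 nM protein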
# UUG fidelity = modulators of start codon recognition fidelity in yeast. S. cerevisiae UUG-firefly luciferase reporter, luminescence/redox ratio. activity score, % at 18.7 µM. 0.13% of 350,000 active. AID 602363;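 active = replicate mean at a twofold rise or more, about +100% in these data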;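 also: firefly luciferase made from a UUG start codon reports start codon fidelity; reporter light over untreated wells divided by growth signal over untreated wells; some hits fall short of that in this replicate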
# PDI inh = inhibitors of human PDI, primary screen, biochemical, turbidity, single point, plate reader; PDI insulin aggregation turbidity, A650, 90 min; inhibition, % at 10 µM; 350,000 compounds, 0.052% hits;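 active = mean inhibition across replicates of 30% or more, whatever share of single replicates reach that level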
# Rev-erbA confirm = modulators of Rev-erb alpha DNA binding, confirmation, biochemical, FITC-DNA, fluorescence polarization, single point; shares compounds with NR1D1 modulator; 90 min; activation, % at 25 µM; 3,000 compounds, 61% hits; AID 1259319, 2017;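 active = activation at or above a set limit, or at least 3 SD above the negative control mean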;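 note: 0% = 35 nM protein with DMSO and 100% = 750 nM protein high control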
# RORg DNA counter = modulation of RORgamma DNA binding, dose response, counter-screen for Rev-erb alpha modulator project, biochemical, fluorescence polarization, FITC-DNA. shares compounds with NR1D1 modulator. purified RORgamma protein-FITC-DNA binding. IC50, µM. 910 compounds, 8% hits. AID 1259320, 2017;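 active = Compounds whose fitted half-maximal concentration for disrupting protein-DNA binding is below 10 micromolar; the record names Rev-erb in its text, so the target is in doubt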
# Starred values were filed as active, the others as inactive; i = inactive; · = no result given.
SMILES,ERp5 block,SMARCA2 act,INS-1E GSIS act,NR1D1 modulator,UUG fidelity,PDI inh,Rev-erbA confirm,others
CC(C)NC(=O)N(C)C[C@@H]1Oc2c(NC(=O)Nc3ccccc3)cccc2C(=O)N([C@@H](C)CO)C[C@H]1C,1.3,·,9.6,·,8.4,·,·,
CN1c2ccccc2C(=O)/C(=C\Nc2ccc(F)cc2)S1(=O)=O,5.2,-1.3,·,1.5,-13.3,2.7,·,
COc1ccc(N/C=C2\C(=O)c3c(sc(C)c3C)N(C)S2(=O)=O)cc1,3.5,-1.3,16.4,77.9*,-8.1,10.9,4.8,
CC(=O)N(C)C[C@H]1Oc2cc(-c3ccc(C)cc3)ccc2S(=O)(=O)N([C@H](C)CO)C[C@H]1C,1.1,·,-0.4,·,0.5,·,·,
CCOC(=O)CC(=O)CSc1nc(-c2ccccc2)cc(-c2ccccc2)c1C#N,2.2,2.3,1.3,18.3,·,-4.2,·,
COc1cc(-c2cc(-c3ccccc3)nc(SCC(=O)Nc3nccs3)c2C#N)cc(OC)c1OC,·,0.4,·,72.1*,-9.4,-2.8,14.9,
CC(C)OC(=O)CC(=O)CSc1nc(-c2ccc(F)cc2)cc(-c2ccccc2)c1C#N,3.4,1.1,7.6,35.9*,·,10.1,26.4*,
O=C(Nc1ccc(Cl)cc1)N1C[C@H]2[C@@H](c3ccccc31)[C@@H](CO)N2C(=O)c1cccnc1,0.0,·,-22.0,·,-14.5,·,·,
COCC#Cc1ccc2c(c1)O[C@@H](CN(C)S(=O)(=O)c1cccc(OC)c1)[C@@H](C)CN([C@H](C)CO)S2(=O)=O,-1.9,·,0.1,·,11.7,·,·,
CCCCNC(=O)Cn1cnc2sc(C(=O)OCC)c(C)c2c1=O,·,-2.4,·,35.2*,-3.4,-0.7,7.7,
CCCNC(=O)C[C@@H]1CC[C@@H]2[C@H](COC[C@H](O)CN2C(=O)Nc2ccc3c(c2)OCO3)O1,-10.4,·,-2.1,·,-7.4,·,·,
Cc1nn(Cc2ccccc2)c(C)c1NC(=O)CSc1nc(C2CC2)nc2c1cnn2-c1ccccc1,·,-6.1,·,-2.2,-11.4,-0.3,·,
Cc1nn(C)c(C)c1NC(=O)CSc1nc(Cc2ccccc2)nc2c1cnn2-c1ccccc1,·,-0.4,·,181.1*,·,-5.6,75.8*,
Cc1cc(N(C)C)cc(C)c1N=Nc1cc[n+]([O-])cc1,1.5,0.8,-15.3,26.7*,18.6,7.1,24.5*,
C=CCn1c(SCCNC(C)=O)nc2cc(-c3ccccc3)sc2c1=O,-2.7,-2.5,-3.7,48.8*,-18.4,3.1,53.6*,RORg DNA counter=>40
Cc1noc(C)c1NC(=O)N(C)C[C@@H]1OCCCC[C@H](C)Oc2ccc(NS(=O)(=O)c3ccccc3)cc2C(=O)N([C@H](C)CO)C[C@@H]1C,3.8,·,-2.0,·,-2.5,·,·,
Cc1ccc(-c2nn(C)c(=O)c3ccccc23)cc1S(=O)(=O)N1CCCC1,-8.7,-4.1,-16.9,26.3*,9.4,1.0,36.0*,RORg DNA counter=>40
Cc1ccc(-c2nn(C)c(=O)c3ccccc23)cc1S(=O)(=O)N1CCOCC1,·,-3.7,-1.7,-1.2,·,1.6,·,
O=c1[nH]c(/C=C/c2cccc3ccccc23)nc2ccccc12,3.2,2.6,-4.4,60.2*,·,1.4,25.4*,
O=c1[nH]c(/C=C/c2ccccc2F)nc2ccccc12,2.6,1.4,6.5,-10.2,-8.7,0.2,·,
O=C(OCCN1C(=O)c2cccc3c(N4CCOCC4)ccc(c23)C1=O)c1ccc(Cl)cc1Cl,·,-0.2,-32.8,259.9*,·,5.7,206.3*,RORg DNA counter=4.52*
O=C(OCCN1C(=O)c2cccc3c(N4CCOCC4)ccc(c23)C1=O)c1ccccc1Cl,·,-7.1,-41.0,40.3*,·,-6.6,56.3*,RORg DNA counter=>40
O=C(OCCN1C(=O)c2ccccc2C1=O)c1cc(S(=O)(=O)N2CCOCC2)ccc1Cl,·,-0.3,0.2,-3.9,13.2,-0.3,·,
C[C@@H]1CN([C@@H](C)CO)C(=O)c2cc(NS(C)(=O)=O)ccc2O[C@@H](C)CCCCO[C@@H]1CN(C)Cc1ccncc1,-0.8,·,17.3,·,11.4,·,·,
O=C(Nc1ccccc1F)c1cccc(C(=O)Nc2ccccc2F)c1,-5.6,1.5,-9.2,41.1*,·,12.4,-2.7,

# (list continues)
SMILES,ERp5 block,SMARCA2 act,INS-1E GSIS act,NR1D1 modulator,UUG fidelity,PDI inh,Rev-erbA confirm,others
O=C1N/C(=C/c2ccc(N3CCCC3)cc2)C(=O)N1c1ccccc1,4.3,1.2,-1.1,7.3,-15.4,-16.3,·,
Cc1cc(N2CCCC2)ccc1/C=C1\NC(=S)N(C)C1=O,·,0.3,-18.1,29.9*,·,-6.5,50.3*,RORg DNA counter=>40
O=C1/C(=C/c2ccc(N3CCCC3)cc2)NC(=S)N1C1CC1,·,-1.1,·,26.8*,-5.9,3.8,27.1*,
CC(=O)N(C)C[C@H]1Oc2ncc(/C=C/c3ccccc3)cc2C(=O)N([C@H](C)CO)C[C@H]1C,0.7,·,21.6,·,-4.1,·,·,
CCCNC(=O)N1CCC2(CC1)CN(C(C)=O)[C@@H](CO)c1[nH]c3cc(OC)ccc3c12,·,·,9.3,·,·,·,·,
CO[C@H](CN(C)S(=O)(=O)c1ccccc1)[C@@H](C)CN(C(=O)Nc1ccccc1F)[C@H](C)CO,-2.0,·,-7.0,·,·,·,·,
O=C(NCC[C@@H]1CC[C@H](NS(=O)(=O)Cc2ccccc2)[C@@H](CO)O1)C1CCCC1,3.0,·,17.3,·,8.4,·,·,
COC(=O)c1ccccc1NC(=O)C1=CC(c2cccs2)=NS(=O)(=O)N1C,1.0,-2.8,·,52.0*,-15.6,·,31.7*,RORg DNA counter=3.02*
O=C(CSc1nc2c(c(C(F)(F)F)n1)CCc1ccccc1-2)NCc1ccc(F)cc1,·,-3.2,2.3,59.9*,-13.5,-3.6,13.2,
O=C(CSc1nc2c(c(C(F)(F)F)n1)CCc1ccccc1-2)NCc1ccccc1,·,0.8,·,97.5*,-7.8,8.9,40.3*,RORg DNA counter=i
C[C@@H]1CCCCO[C@@H](CN(C)S(=O)(=O)c2cn(C)cn2)[C@@H](C)CN([C@H](C)CO)C(=O)c2cc(NS(=O)(=O)c3ccc(Cl)cc3)ccc2O1,-4.6,·,5.3,·,14.5,·,·,
Cc1nc(SCC(=O)Nc2ccc(F)cc2)c2oc3ccccc3c2n1,·,0.9,·,220.0*,-19.9,-0.1,233.5*,RORg DNA counter=>40
Cc1nc(SCC(=O)Nc2ccccc2)c2oc3ccccc3c2n1,·,0.6,·,781.5*,7.7,-8.2,665.8*,RORg DNA counter=>40
CCC(=O)N1[C@H](C(=O)OC)[C@@H](CO)[C@@H]2Cn3c(ccc(/C=C/c4ccccc4)c3=O)[C@@H]21,8.9,·,18.7,·,·,·,·,
Cc1cc(=O)n2c(sc3ccccc32)c1C#N,-2.9,-4.0,-17.5,38.8*,·,2.9,20.7*,
